Data on one substance can be found in PMC8240970, “Orally delivered polycurcumin responsive to bacterial reduction for targeted therapy of inflammatory bowel disease” (Drug Delivery, 2017).

A short description of data set [1]: Pharmacokinetic study after oral administration. Details: species or system Sprague–Dawley (SD) rats. The settings on record: rat, in vivo, 50 mg/kg. The procedure:
Pharmacokinetics of PCur and Cur suspension were tested in SD rats, which were randomly divided into two study groups with six in each group. PCur and Cur suspension were given orally at a dose of 50 mg/kg of Cur. Three hundred microliter of blood samples were collected at 5, 10, 15, 30 and 45 min, 1, 2, 4, 8, 12 and 24 h post oral gavage and centrifuged at 12 000 rpm for 10 min. The supernatant plasma was collected and stored at −20 °C for UPLC–MS/MS analysis. The concentration of Cur was determined by a Waters ACQUITY UPLC system using a Xevo Triple Quadrupole MS equipped with an electrospray ionization (ESI) interface (Waters Co., Milford, MA). One hundred microliter plasma was mixed with 50 μL chloramphenicol (IS) and 50 μL acetonitrile, followed by vortexing for 3 min, and centrifuged at 12 000 rpm for 10 min. […] An aliquot of 5 μL was injected into the UPLC–MS/MS for analysis. Pharmacokinetic parameters were calculated using DAS 2.1 software (BioGuider Co., Shanghai, China).

In turn, PEG-ss-curcumin [PCur] yielded a cumulative drug release (rat cecal suspension, within 24 h) of about 70%. Moreover, for the setting “sterile cecal content (control)”, the “release of Cur” value is recorded as “significantly slower”. Moreover, the “T1/2 relative to Cur suspension” value in data set [1] came out at 1.74 fold.
